{"sequences": {"note": "The chains behind the UniProt entries cited, without tags or fusion partners.", "UniProt P48048, whole entry": "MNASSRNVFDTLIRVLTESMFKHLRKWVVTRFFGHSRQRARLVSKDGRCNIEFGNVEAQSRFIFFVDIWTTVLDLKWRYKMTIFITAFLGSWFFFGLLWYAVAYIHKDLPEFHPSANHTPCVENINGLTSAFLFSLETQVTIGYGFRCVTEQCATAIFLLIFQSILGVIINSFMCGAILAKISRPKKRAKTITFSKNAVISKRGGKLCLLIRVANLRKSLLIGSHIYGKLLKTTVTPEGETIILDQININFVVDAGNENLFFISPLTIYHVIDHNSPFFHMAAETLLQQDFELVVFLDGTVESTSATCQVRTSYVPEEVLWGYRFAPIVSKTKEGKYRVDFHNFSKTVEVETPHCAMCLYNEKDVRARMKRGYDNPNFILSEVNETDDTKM"}, "source": "PubChem BioAssay AID1918", "about": "(Vanderbilt High Throughput Screening Facility, 2009)", "note": "The list shows a part of the results, in another mix than the full data. Calls of active or inactive are those of the source.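 How the source made its calls: active means signal ratio slope over the read window, or its plate-corrected B-score, at least 3 SD from the plate mean, either direction; inactive means the rest.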"}
{"molecular_target": "ATP-sensitive inward rectifier potassium channel 1 (Homo sapiens) (UniProt P48048)", "assay": "Kir1.1 channel activity modulation, library screen – cell-based, thallium flux, MLSMR library, primary screen (AID 1918);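 further: B-score of the F/F0 ratio slope over 7 to 12 s after thallium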", "details": "Tet-inducible ROMK, thallium flux fluorescence; at 10 µM; actives lie on both sides"}
{"smiles": "CCOC(=O)c1ccc(NP(C)(=O)Oc2cc(C)cc(C)c2)cc1", "note": "(configuration not stated)", "B-score": "inactive: -0.323"}
{"smiles": "Cc1cc(C)cc(OP(C)(=O)Nc2ccc(C)cc2C)c1", "note": "(configuration not stated)", "B-score": "inactive: 0.97"}
{"smiles": "CP(=O)(Nc1cccc(Br)c1)Oc1ccccc1", "note": "(configuration not stated)", "B-score": "inactive: 0.0102"}
{"smiles": "CCCOc1ccc(NP(C)(=O)Oc2ccc(Cl)cc2)cc1", "note": "(configuration not stated)", "B-score": "inactive: -0.379"}
{"smiles": "CP(=O)(Nc1ccc(SC(F)(F)F)cc1)Oc1ccccc1", "note": "(configuration not stated)", "B-score": "inactive: -1.03"}
{"smiles": "O=[N+]([O-])c1cc([N+](=O)[O-])c(-n2nnc3ccccc32)c([N+](=O)[O-])c1", "B-score": "inactive: 0.129"}
{"smiles": "Cc1nc2ccc3ccccc3c2s1.O=[N+]([O-])c1cc([N+](=O)[O-])c(O)c([N+](=O)[O-])c1", "B-score": "inactive: -1.09"}
{"smiles": "CCc1ccc(OP(C)(=O)N2CCN(c3ccc([N+](=O)[O-])cc3)CC2)cc1", "note": "(configuration not stated)", "B-score": "inactive: -2.04"}
{"smiles": "CP(=O)(Oc1ccccc1)OC(c1ccccc1)C(F)(F)F", "note": "(configuration not stated)", "B-score": "inactive: -0.247"}
{"smiles": "CP(=O)(Nc1ccc(SC(F)(F)F)cc1)Oc1ccc(Cl)cc1", "note": "(configuration not stated)", "B-score": "inactive: -2.08"}
{"smiles": "Cc1cccc(C)c1OP(C)(=O)Nc1ccc(SC(F)(F)F)cc1", "note": "(configuration not stated)", "B-score": "inactive: -2.03"}
{"smiles": "CP(=O)(Nc1ccccn1)Oc1ccc(Cl)cc1", "note": "(configuration not stated)", "B-score": "inactive: -0.191"}
{"smiles": "CP(=O)(Nc1ccccc1Br)Oc1ccccc1", "note": "(configuration not stated)", "B-score": "inactive: -0.164"}
{"smiles": "COc1ccccc1OP(C)(=O)Nc1ccccc1", "note": "(configuration not stated)", "B-score": "inactive: 0.534"}
{"smiles": "O=[N+]([O-])c1ccc2c(c1)C=Nc1ccccc1O2", "B-score": "active: -4.19"}
{"smiles": "Cc1cccc(C)c1OP(C)(N)=O", "note": "(configuration not stated)", "B-score": "inactive: -1.24"}
{"smiles": "CC(C)(C)c1ccc(OP(C)(=O)Nc2ccc(SC(F)(F)F)cc2)cc1", "note": "(configuration not stated)", "B-score": "inactive: 0.096"}
{"smiles": "Cc1cc(C)cc(OP(C)(N)=O)c1", "note": "(configuration not stated)", "B-score": "inactive: 0.665"}
{"smiles": "COc1ccc(OP(C)(=O)Nc2cccc(F)c2)cc1", "note": "(configuration not stated)", "B-score": "inactive: -0.778"}
{"smiles": "COc1ccccc1OP(C)(=O)Nc1cc(Cl)ccc1C", "note": "(configuration not stated)", "B-score": "inactive: -0.457"}
{"smiles": "Cc1ccc(NP(C)(=O)Oc2ccccc2)c(C)c1", "note": "(configuration not stated)", "B-score": "inactive: 0.031"}
{"smiles": "CCOC(=O)c1ccc(NP(C)(=O)Oc2ccccc2)cc1", "note": "(configuration not stated)", "B-score": "inactive: -0.571"}
{"smiles": "CCN(CC)CCCOC(=O)C(O)(c1ccccc1)c1ccccc1", "B-score": "inactive: -0.0876"}
{"smiles": "COc1ccc(OP(C)(=O)Nc2ccccn2)cc1", "note": "(configuration not stated)", "B-score": "inactive: 1.66"}
{"smiles": "COc1ccccc1OP(C)(=O)Nc1ccc(Br)cc1", "note": "(configuration not stated)", "B-score": "inactive: 1.3"}
{"smiles": "CP(=O)(Nc1ccccn1)Oc1ccccc1", "note": "(configuration not stated)", "B-score": "inactive: -0.493"}
{"smiles": "O=[N+]([O-])c1cc([N+](=O)[O-])c(Nc2ccccn2)c([N+](=O)[O-])c1", "B-score": "inactive: 0.0377"}
{"smiles": "COc1ccc(OP(C)(=O)Nc2ccccc2Br)cc1", "note": "(configuration not stated)", "B-score": "inactive: 0.0528"}
{"smiles": "Cc1cc(C)cc(OP(C)(=O)Nc2cccc(C(F)(F)F)c2)c1", "note": "(configuration not stated)", "B-score": "inactive: -0.444"}
{"smiles": "CP(=O)(Nc1ccc(Cl)cc1Cl)Oc1ccccc1", "note": "(configuration not stated)", "B-score": "inactive: 0.197"}
{"smiles": "CP(=O)(OCCOc1ccccc1)OCCOc1ccccc1", "B-score": "inactive: 0.604"}
{"smiles": "CCOC(=O)c1ccc(NP(C)(=O)Oc2ccc(Cl)cc2)cc1", "note": "(configuration not stated)", "B-score": "inactive: 0.142"}
{"smiles": "CP(=O)(OC12CC3CC(CC(C3)C1)C2)OC12CC3CC(CC(C3)C1)C2", "B-score": "inactive: -1.81"}
{"smiles": "O=C(OCCCN1CCCC1)C(O)(c1ccccc1)C1CCCCC1", "note": "(configuration not stated)", "B-score": "inactive: 0.152"}
{"smiles": "COc1ccccc1OP(C)(=O)Nc1c(C)n(C)n(-c2ccccc2)c1=O", "note": "(configuration not stated)", "B-score": "inactive: 0.234"}
{"smiles": "CCc1ccc(OP(C)(=O)Nc2cccnc2)cc1", "note": "(configuration not stated)", "B-score": "inactive: 0.815"}
{"smiles": "CCN(CC)CC(O)COC(=O)C(O)(c1ccccc1)C1CCCCC1", "note": "(configuration not stated)", "B-score": "inactive: -0.502"}
{"smiles": "CN(C)C(=O)c1c([N+](=O)[O-])cc([N+](=O)[O-])cc1[N+](=O)[O-]", "B-score": "inactive: 0.279"}
{"smiles": "COc1ccccc1OP(C)(=O)Nc1ccccc1Br", "note": "(configuration not stated)", "B-score": "inactive: -0.128"}
{"smiles": "CC(C)(C)c1ccc(OP(C)(=O)O)cc1", "B-score": "inactive: 0.43"}
{"smiles": "CP(=O)(Nc1ccc(SC(F)(F)F)cc1)Oc1ccc(F)cc1", "note": "(configuration not stated)", "B-score": "inactive: -0.875"}
{"smiles": "Cc1ccccc1NP(C)(=O)Nc1ccccc1C", "B-score": "inactive: 1.76"}
{"smiles": "COc1ccc(NP(C)(=O)Oc2ccccc2OC)cc1", "note": "(configuration not stated)", "B-score": "inactive: -1.1"}
{"smiles": "COc1ccc(OP(C)(=O)Nc2cccc(Br)c2)cc1", "note": "(configuration not stated)", "B-score": "inactive: -0.0098"}
{"smiles": "O=[N+]([O-])c1ccc(OP2(=O)COCCO2)cc1", "note": "(configuration not stated)", "B-score": "inactive: -0.204"}
{"smiles": "O=[N+]([O-])c1cc([N+](=O)[O-])c(NCC2CCS(=O)(=O)C2)c([N+](=O)[O-])c1", "note": "(configuration not stated)", "B-score": "inactive: -0.339"}
{"smiles": "CCOC(=O)c1ccc(NP(C)(=O)Oc2ccc(F)cc2)cc1", "note": "(configuration not stated)", "B-score": "inactive: -1.66"}
{"smiles": "COc1ccc(OP(C)(=O)Nc2ccc(SC(F)(F)F)cc2)cc1", "note": "(configuration not stated)", "B-score": "inactive: 0.854"}
{"smiles": "CCCCCOc1ccc(NP(C)(=O)Oc2ccc(Cl)cc2Cl)cc1", "note": "(configuration not stated)", "B-score": "inactive: 0.576"}
{"smiles": "CCN(CC)CCCOC(=O)C(O)(c1ccccc1)C1CCCCC1", "note": "(configuration not stated)", "B-score": "inactive: -1.42"}
{"smiles": "CC(C)c1ccc(OP(C)(=O)Nc2ccc(SC(F)(F)F)cc2)cc1", "note": "(configuration not stated)", "B-score": "inactive: 1.91"}
{"smiles": "O=C(OCCN1CCN(CCOCc2ccccc2)CC1)C(O)(c1ccccc1)c1ccccc1", "B-score": "inactive: -2.14"}
